Format in all cases: biochemical
The target of one test is thrombin (Homo sapiens, UniProt P00734). Description: Thrombin-inhibiting activity, synthetic substrate PS-915. The conditions noted are these: read-out: Synthetic substrate IC50 Thrombin, Table 4, PS-915, pH 8.5, 37° C.
Test [1] deals with T1, plasmin (Homo sapiens, UniProt P00747). Description: Plasmin-inhibiting activity, synthetic substrate PS-994. To be noted: read-out: Synthetic substrate IC50 Plasmin, Table 4, PS-994, pH 7.8, 37° C.
A further test addresses human plasma kallikrein (Homo sapiens, UniProt P03952). As to the kind of experiment: Kallikrein-inhibiting activity, synthetic substrate S-2302. To be noted: read-out: Synthetic substrate IC50 Kallikrein, S-2302, pH 8.0, 37° C.
The target of test [2] is T1, plasmin. As to the kind of experiment: Inhibitory activity on fibrin decomposition by plasmin (natural substrate). To be noted: read-out: Natural substrate IC50 Fibrin, concentration doubling time for complete dissolution, 25° C.
Another test addresses trypsin (Bos taurus, UniProt P00760). Description: Trypsin-inhibiting activity, synthetic substrate PS-915. To be noted: read-out: Synthetic substrate IC50 Trypsin, Table 4, PS-915, pH 8.0, 37° C.
The target in another test is human Factor Xa (Homo sapiens, UniProt P00742). As to the kind of experiment: Factor Xa-inhibiting activity, synthetic substrate PS-2000. To be noted: read-out: Synthetic substrate IC50 Factor Xa, PS-2000, pH 8.5, 37° C.

The chains behind the UniProt entries cited, without tags or fusion partners. Residues count along the entry.
UniProt P00747, 581-810 limits assumed: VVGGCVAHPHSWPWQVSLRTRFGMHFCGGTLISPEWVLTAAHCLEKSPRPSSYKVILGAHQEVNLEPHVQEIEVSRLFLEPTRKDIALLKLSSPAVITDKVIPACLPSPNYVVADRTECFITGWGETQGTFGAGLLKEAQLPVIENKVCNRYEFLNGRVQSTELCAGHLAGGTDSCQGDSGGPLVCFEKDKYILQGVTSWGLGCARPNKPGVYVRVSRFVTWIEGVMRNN
UniProt P00747, 97-580 partner limits assumed: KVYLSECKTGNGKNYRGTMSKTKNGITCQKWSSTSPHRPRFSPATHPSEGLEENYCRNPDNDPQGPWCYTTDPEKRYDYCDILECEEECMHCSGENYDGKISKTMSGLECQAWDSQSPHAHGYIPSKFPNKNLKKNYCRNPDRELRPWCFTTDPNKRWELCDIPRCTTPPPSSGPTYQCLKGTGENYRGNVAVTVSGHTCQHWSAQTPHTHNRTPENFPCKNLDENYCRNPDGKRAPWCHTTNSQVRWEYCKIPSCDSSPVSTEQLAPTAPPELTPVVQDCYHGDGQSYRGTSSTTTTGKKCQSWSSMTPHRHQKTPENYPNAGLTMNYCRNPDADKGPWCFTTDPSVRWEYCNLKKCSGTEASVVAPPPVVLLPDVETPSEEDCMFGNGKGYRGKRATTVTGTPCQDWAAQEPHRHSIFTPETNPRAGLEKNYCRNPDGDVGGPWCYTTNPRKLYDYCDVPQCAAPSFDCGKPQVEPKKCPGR
UniProt P03952, 391-638 limits assumed: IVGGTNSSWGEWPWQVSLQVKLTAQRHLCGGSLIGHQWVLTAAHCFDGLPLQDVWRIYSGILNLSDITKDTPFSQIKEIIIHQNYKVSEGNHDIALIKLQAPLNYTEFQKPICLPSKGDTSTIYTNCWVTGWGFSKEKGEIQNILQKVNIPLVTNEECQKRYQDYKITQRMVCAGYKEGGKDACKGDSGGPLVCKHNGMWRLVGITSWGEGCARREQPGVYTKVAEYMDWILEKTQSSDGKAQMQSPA
UniProt P03952, 20-390 partner limits assumed: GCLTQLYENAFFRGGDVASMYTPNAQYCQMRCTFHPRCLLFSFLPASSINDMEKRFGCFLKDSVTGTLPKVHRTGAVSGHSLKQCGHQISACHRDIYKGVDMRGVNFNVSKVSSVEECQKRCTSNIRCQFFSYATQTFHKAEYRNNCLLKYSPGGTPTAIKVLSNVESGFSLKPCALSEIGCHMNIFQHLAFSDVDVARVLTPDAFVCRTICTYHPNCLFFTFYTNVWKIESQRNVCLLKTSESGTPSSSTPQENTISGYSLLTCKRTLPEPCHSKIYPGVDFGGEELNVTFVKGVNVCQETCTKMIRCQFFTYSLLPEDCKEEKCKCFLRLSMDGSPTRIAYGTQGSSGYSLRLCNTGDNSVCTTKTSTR
UniProt P00760, 24-246 limits assumed: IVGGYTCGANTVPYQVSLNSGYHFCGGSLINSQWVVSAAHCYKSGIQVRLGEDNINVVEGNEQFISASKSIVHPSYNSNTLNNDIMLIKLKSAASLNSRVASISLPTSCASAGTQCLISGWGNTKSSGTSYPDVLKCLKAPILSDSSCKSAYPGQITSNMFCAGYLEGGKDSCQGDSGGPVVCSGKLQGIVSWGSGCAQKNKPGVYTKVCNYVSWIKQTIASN
UniProt P00742, 235-488 limits assumed: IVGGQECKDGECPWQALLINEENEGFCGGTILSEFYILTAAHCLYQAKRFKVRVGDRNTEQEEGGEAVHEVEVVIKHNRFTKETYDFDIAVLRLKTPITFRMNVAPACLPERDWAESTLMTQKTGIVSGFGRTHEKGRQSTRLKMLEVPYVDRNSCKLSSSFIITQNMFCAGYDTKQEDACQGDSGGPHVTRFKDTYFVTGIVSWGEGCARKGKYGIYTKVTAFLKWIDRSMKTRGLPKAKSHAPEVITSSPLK
UniProt P00742, 41-179 partner limits assumed: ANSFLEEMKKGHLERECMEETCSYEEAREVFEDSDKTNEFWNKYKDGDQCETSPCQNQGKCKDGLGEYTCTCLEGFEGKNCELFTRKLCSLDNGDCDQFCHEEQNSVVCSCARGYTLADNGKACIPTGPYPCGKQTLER

pIC50: −log10 of the molar value. Read-outs that look alike come from different tables or passages of the source.

The values that follow come from patent US4883863A, “Tripeptide derivatives and antiplasmin agents containing the same” (Nitto Boseki Co., Ltd., priority 1987, dated 1989).

Broadly, the pIC50 is the negative decadic logarithm of the IC50, by convention in mol/L. As to `CCS(=O)(=O)N[C@H](CCCCNS(=O)(=O)c1ccc(C)cc1)C(=O)N[C@@H](Cc1ccccc1)C(=O)N[C@@H](CCCCN)C(=O)CCl`, the pIC50 is 6.96 on thrombin (tested form: HCl); 8.70 at plasmin [1] (tested form: HCl); 8.42 at human plasma kallikrein (Table 4, tested form: HCl); 7.05 on plasmin [2] (Table 4, tested form: HCl); 7.82 at trypsin (tested form: HCl); 6.13 on human Factor Xa (Table 4, tested form: HCl).
As to `Cc1ccc(S(=O)(=O)NCCCC[C@@H](NS(=O)(=O)c2ccc(Cl)cc2)C(=O)N[C@@H](Cc2ccccc2)C(=O)N[C@@H](CCCCN)C(=O)CCl)cc1`, the pIC50 was 5.85 at thrombin (tested form: HCl); 7.89 on plasmin [1] (tested form: HCl); 7.49 at human plasma kallikrein (Table 4, tested form: HCl); 7.00 on plasmin [2] (Table 4, tested form: HCl); 7.24 on trypsin (tested form: HCl); 5.60 at human Factor Xa (Table 4, tested form: HCl).
On to `Cc1ccc(S(=O)(=O)NCCCC[C@@H](N)C(=O)N[C@@H](Cc2ccccc2)C(=O)N[C@@H](CCCCN)C(=O)CCl)cc1`, for which the pIC50 at thrombin (tested form: 2HCl) is 5.11; on plasmin [1] (tested form: 2HCl) it was 8.15; at human plasma kallikrein (Table 4, tested form: 2HCl), 7.34; at plasmin [2] (Table 4, tested form: 2HCl), 6.55; on trypsin (tested form: 2HCl) it was 6.89; at human Factor Xa (Table 4, tested form: 2HCl), 4.68.
With `Cc1ccc(C(=O)N[C@H](CCCCNS(=O)(=O)c2ccc(C)cc2)C(=O)N[C@@H](Cc2ccccc2)C(=O)N[C@@H](CCCCN)C(=O)CCl)cc1`, the negative logarithm of the IC50 (pIC50) at thrombin (tested form: HCl) was 5.47; at plasmin [1] (tested form: HCl), 7.27; on human plasma kallikrein (Table 4, tested form: HCl), 7.24; on plasmin [2] (Table 4, tested form: HCl), 6.11; at trypsin (tested form: HCl) it was 6.32; at human Factor Xa (Table 4, tested form: HCl), 5.43.
On to `Cc1ccc(S(=O)(=O)NCCCC[C@@H](NS(C)(=O)=O)C(=O)N[C@@H](Cc2ccccc2)C(=O)N[C@@H](CCCCN)C(=O)CCl)cc1`, for which the pIC50 at thrombin (tested form: HCl) is 6.70; on plasmin [1] (tested form: HCl) it was 8.46; on human plasma kallikrein (Table 4, tested form: HCl), 8.24; on plasmin [2] (Table 4, tested form: HCl), 6.96; on trypsin (tested form: HCl) it was 7.52; on human Factor Xa (Table 4, tested form: HCl), 5.89.
`Cc1ccc(S(=O)(=O)NCCCC[C@@H](NS(=O)(=O)c2ccc3ccccc3c2)C(=O)N[C@@H](Cc2ccccc2)C(=O)N[C@H](C=O)CCCCN)cc1`: the pIC50 is less than 4.00 at thrombin (tested form: HCl); 7.80 on plasmin [1] (tested form: HCl); 6.10 on human plasma kallikrein (Table 4, tested form: HCl); 6.11 on plasmin [2] (Table 4, tested form: HCl); 5.46 on trypsin (tested form: HCl); 4.66 at human Factor Xa (Table 4, tested form: HCl).
On to `CCOC(=O)c1ccc(OC(=O)CCCCCNC(=N)N)cc1`, for which the pIC50 on plasmin [2] (Table 3, tested form: mesylate) was 4.85.
On to `Cc1ccc(S(=O)(=O)NCCCC[C@@H](NC=O)C(=O)N[C@@H](Cc2ccccc2)C(=O)N[C@@H](CCCCN)C(=O)CCl)cc1`, for which the pIC50 is 5.00 at thrombin (tested form: HCl); 7.70 on plasmin [1] (tested form: HCl); 7.37 on human plasma kallikrein (Table 4, tested form: HCl); 6.42 at plasmin [2] (Table 4, tested form: HCl); 6.82 at trypsin (tested form: HCl); 4.89 at human Factor Xa (Table 4, tested form: HCl).
Regarding `Cc1ccc(S(=O)(=O)Oc2ccc(CC(NC(=O)OCC(C)C)C(=O)N[C@@H](Cc3ccccc3)C(=O)N[C@H](C=O)CCCCN)cc2)cc1` (stereo partly drawn), the pIC50 on thrombin (tested form: HCl) is less than 3.00; at plasmin [1] (tested form: HCl) it was 7.52; at human plasma kallikrein (Table 4, tested form: HCl) it was 5.54; at plasmin [2] (Table 4, tested form: HCl), 6.32; on trypsin (tested form: HCl) it was 5.28; at human Factor Xa (Table 4, tested form: HCl) it was 5.15.
Take `Cc1ccc(S(=O)(=O)NCCCC[C@@H](NC(=O)COc2ccccc2)C(=O)N[C@@H](Cc2ccccc2)C(=O)N[C@@H](CCCCN)C(=O)CCl)cc1`: the pIC50 at thrombin (tested form: HCl) is 5.70; at plasmin [1] (tested form: HCl), 7.60; on human plasma kallikrein (Table 4, tested form: HCl), 7.70; at plasmin [2] (Table 4, tested form: HCl), 6.47; at trypsin (tested form: HCl), 6.66; on human Factor Xa (Table 4, tested form: HCl), 5.26.
In the case of `CC(=O)N[C@H](CCCCNS(=O)(=O)c1ccc(C)cc1)C(=O)N[C@@H](Cc1ccccc1)C(=O)N[C@@H](CCCCN)C(=O)CCl`, the pIC50 at thrombin (tested form: HCl) was 4.82; at plasmin [1] (tested form: HCl) it was 7.52; at human plasma kallikrein (Table 4, tested form: HCl) it was 6.66; at plasmin [2] (Table 4, tested form: HCl), 6.00; on trypsin (tested form: HCl), 6.18; on human Factor Xa (Table 4, tested form: HCl) it was 4.42.
In the case of `Cc1ccc(S(=O)(=O)NCCCC[C@@H](NC(=O)OCC(C)C)C(=O)N[C@@H](Cc2ccccc2)C(=O)N[C@@H](CCCCN)C(=O)N2CCC(Cc3ccccc3)CC2)cc1`, the pIC50 on thrombin (tested form: HCl) is less than 3.00; at plasmin [1] (tested form: HCl), less than 3.00; on human plasma kallikrein (Table 4, tested form: HCl), less than 3.00; at plasmin [2] (Table 4, tested form: HCl) it was 3.68; on trypsin (tested form: HCl) it was less than 3.00; at human Factor Xa (Table 4, tested form: HCl), less than 3.00.
On to `N=C(N)Nc1ccc(C(=O)Oc2ccc3cc(C(=N)N)ccc3c2)cc1` [Nafamstat], for which the pIC50 on human plasma kallikrein (Table 3, tested form: 2CH3SO3H) is 9.05; at human Factor Xa (Table 3, tested form: 2CH3SO3H) it was 5.39.
Turning to `Cc1ccc(S(=O)(=O)NCCCC[C@@H](NC(=O)Cc2ccccc2)C(=O)N[C@@H](Cc2ccccc2)C(=O)N[C@@H](CCCCN)C(=O)CCl)cc1`, the pIC50 on thrombin (tested form: HCl) was 5.11; at plasmin [1] (tested form: HCl), 6.96; at human plasma kallikrein (Table 4, tested form: HCl), 7.15; at plasmin [2] (Table 4, tested form: HCl) it was 6.00; at trypsin (tested form: HCl) it was 6.05; on human Factor Xa (Table 4, tested form: HCl) it was 5.08.
